The subject of the experiment is weeds; Oilseed rape. The following applies: PRE, 28 DAT, rate in the words.
As to `CC1(C)CON(Cc2ccc(Cl)cc2Cl)C1=O` [2,4-DC, 2-(2,4-dichlorophenyl)methyl-4,4-dimethyl-3-isoxazolidinone], the “weed control / crop safety in words” value is “alone at any rate did not able to control any species except common chickweed”.

In the case of `COCCN(C(=O)CCl)c1c(C)cccc1C` [Dimethachlor, dimethachlor], the “weed control / crop safety in words” value is “controlled only two species, Italian ryegrass and corn poppy”.

`Cc1cccc(C)c1N(Cn1cccn1)C(=O)CCl` [Metazachlor, metazachlor]: the “weed control / crop safety in words” value is “controlled all weeds except tall morningglory and wild mustard”.

Turning to `CCN(CC)C(=O)C(C)Oc1cccc2ccccc12` (stereo not shown) [napropamide, reference compound], the “weed control / crop safety in words” value is “controlled Italian ryegrass, wild buckwheat, redroot pigweed, common chickweed, and corn poppy”.
